Source: US9815810B1, “Method of cannabinoid preservation through crystallization and other crystal structures” (Deep Cell […]., priority 2016, dated 2017)

Test: Cannabinoid profile of crystalline product samples by HPLC-DAD-MS analysis (cannabinoid preservation)
Details: sucrose, without rapid cooling process, from RB Fat

Row | Compound | Cannabinoid quantity in Sample R103C
1 | CCCCCc1cc(O)c2c(c1)OC(C)(C)[C@@H]1CC=C(C)C[C@@H]21 [Δ8-THC, Δ-8-tetrahydrocannabinol] | 0.18 mg/g
2 | CCCCCc1cc(O)c(C/C=C(\C)CCC=C(C)C)c(O)c1 [CBG, Cannabigerol] | 0.26 mg/g
3 | CCCc1cc(O)c2c(c1)OC(C)(C)[C@@H]1CCC(C)=C[C@@H]21 [THCV, Tetrahydrocannabivarin] | 0.15 mg/g
4 | CCCCCc1cc(O)c2c(c1)OC(C)(C)[C@@H]1CCC(C)=C[C@@H]21 [Δ9-THC, Δ-9-tetrahydrocannabinol, reference compound] | 15.64 mg/g
5 | CCCCCc1cc2c(c(O)c1C(=O)O)[C@@H]1C=C(C)CC[C@H]1C(C)(C)O2 [THC-A, Tetrahydrocannabinolic acid] | 3.08 mg/g
6 | CCCCCc1cc(O)c2c(c1)OC(C)(C)c1ccc(C)cc1-2 [CBN, Cannabinol] | 1.16 mg/g
7 | CCCCCc1cc2c(c(O)c1C(=O)O)C1C3C(CCC3(C)O2)C1(C)C (centres unmarked) [CBL-A, cannabicyclol acid] | 0.35 mg/g
8 | CCCCCc1cc(O)c2c(c1)OC(C)(CCC=C(C)C)C=C2 (centres unmarked) [CBC, Cannabichromene] | 0.42 mg/g
